Columns and labels:
[1] = substrate: O=C[C@H](O)COP(=O)(O)O; test: TPI activity assay, Michaelis-Menten kinetics; format: biochemical; conditions: yeast extract expressing human TPI; no PEP
[2] = substrate: O=C[C@H](O)COP(=O)(O)O; test: TPI activity assay, Michaelis-Menten kinetics; format: biochemical, Oryctolagus cuniculus; conditions: purified muscle enzyme; no PEP

B1: human TPI (expressed in yeast) (Homo sapiens) (protein)
chain: APSRKFFVGGNWKMNGRKQSLGELIGTLNAAKVPADTEVVCAPPTAYIDFARQKLDPKIAVAAQNCYKVTNGAFTGEISPGMIKDCGATWVVLGHSERRHVFGESDELIGQKVAHALAEGLGVIACIGEKLDEREAGITEKVVFEQTKVIADNVKDWSKVVLAYEPVWAIGTGKTATPQQAQEVHEKLRGWLKSNVSDAVAQSTRIIYGGSVTGATCKELASQPDVDGFLVGGASLKPEFVDIINAKQ
notes: human TPI expressed in transgenic yeast lacking endogenous TPI1; extract, activity normalized to total cellular protein; homodimer
In the case of B1, the Km [1] is reported as 710 µM.

B2: rabbit TPI (purified from muscle) (Oryctolagus cuniculus) (protein)
chain: APSRKFFVGGNWKMNGRKKNLGELITTLNAAKVPADTEVVCAPPTAYIDFARQKLDPKIAVAAQNCYKVTNGAFTGEISPGMIKDCGATWVVLGHSERRHVFGESDELIGQKVAHALSEGLGVIACIGEKLDEREAGITEKVVFEQTKVIADNVKDWSKVVLAYEPVWAIGTGKTATPQQAQEVHEKLRGWLKSNVSDAVAQSTRIIYGGSVTGATCKELASQPDVDGFLVGGASLKPEFVDIINAKQ
notes: native enzyme purified from rabbit muscle; homodimer
Work on B2 yielded a Km [2] of 698 µM.
